# Experimental data: US12685726B2, “Sulfoximines as inhibitors of NaV1.8” (Gruenenthal GmbH, priority 2022, dated 2026)
# Protein sequences, listed by entry. Tags and fused reporters are not part of them.
# UniProt Q9Y5Y9, whole entry: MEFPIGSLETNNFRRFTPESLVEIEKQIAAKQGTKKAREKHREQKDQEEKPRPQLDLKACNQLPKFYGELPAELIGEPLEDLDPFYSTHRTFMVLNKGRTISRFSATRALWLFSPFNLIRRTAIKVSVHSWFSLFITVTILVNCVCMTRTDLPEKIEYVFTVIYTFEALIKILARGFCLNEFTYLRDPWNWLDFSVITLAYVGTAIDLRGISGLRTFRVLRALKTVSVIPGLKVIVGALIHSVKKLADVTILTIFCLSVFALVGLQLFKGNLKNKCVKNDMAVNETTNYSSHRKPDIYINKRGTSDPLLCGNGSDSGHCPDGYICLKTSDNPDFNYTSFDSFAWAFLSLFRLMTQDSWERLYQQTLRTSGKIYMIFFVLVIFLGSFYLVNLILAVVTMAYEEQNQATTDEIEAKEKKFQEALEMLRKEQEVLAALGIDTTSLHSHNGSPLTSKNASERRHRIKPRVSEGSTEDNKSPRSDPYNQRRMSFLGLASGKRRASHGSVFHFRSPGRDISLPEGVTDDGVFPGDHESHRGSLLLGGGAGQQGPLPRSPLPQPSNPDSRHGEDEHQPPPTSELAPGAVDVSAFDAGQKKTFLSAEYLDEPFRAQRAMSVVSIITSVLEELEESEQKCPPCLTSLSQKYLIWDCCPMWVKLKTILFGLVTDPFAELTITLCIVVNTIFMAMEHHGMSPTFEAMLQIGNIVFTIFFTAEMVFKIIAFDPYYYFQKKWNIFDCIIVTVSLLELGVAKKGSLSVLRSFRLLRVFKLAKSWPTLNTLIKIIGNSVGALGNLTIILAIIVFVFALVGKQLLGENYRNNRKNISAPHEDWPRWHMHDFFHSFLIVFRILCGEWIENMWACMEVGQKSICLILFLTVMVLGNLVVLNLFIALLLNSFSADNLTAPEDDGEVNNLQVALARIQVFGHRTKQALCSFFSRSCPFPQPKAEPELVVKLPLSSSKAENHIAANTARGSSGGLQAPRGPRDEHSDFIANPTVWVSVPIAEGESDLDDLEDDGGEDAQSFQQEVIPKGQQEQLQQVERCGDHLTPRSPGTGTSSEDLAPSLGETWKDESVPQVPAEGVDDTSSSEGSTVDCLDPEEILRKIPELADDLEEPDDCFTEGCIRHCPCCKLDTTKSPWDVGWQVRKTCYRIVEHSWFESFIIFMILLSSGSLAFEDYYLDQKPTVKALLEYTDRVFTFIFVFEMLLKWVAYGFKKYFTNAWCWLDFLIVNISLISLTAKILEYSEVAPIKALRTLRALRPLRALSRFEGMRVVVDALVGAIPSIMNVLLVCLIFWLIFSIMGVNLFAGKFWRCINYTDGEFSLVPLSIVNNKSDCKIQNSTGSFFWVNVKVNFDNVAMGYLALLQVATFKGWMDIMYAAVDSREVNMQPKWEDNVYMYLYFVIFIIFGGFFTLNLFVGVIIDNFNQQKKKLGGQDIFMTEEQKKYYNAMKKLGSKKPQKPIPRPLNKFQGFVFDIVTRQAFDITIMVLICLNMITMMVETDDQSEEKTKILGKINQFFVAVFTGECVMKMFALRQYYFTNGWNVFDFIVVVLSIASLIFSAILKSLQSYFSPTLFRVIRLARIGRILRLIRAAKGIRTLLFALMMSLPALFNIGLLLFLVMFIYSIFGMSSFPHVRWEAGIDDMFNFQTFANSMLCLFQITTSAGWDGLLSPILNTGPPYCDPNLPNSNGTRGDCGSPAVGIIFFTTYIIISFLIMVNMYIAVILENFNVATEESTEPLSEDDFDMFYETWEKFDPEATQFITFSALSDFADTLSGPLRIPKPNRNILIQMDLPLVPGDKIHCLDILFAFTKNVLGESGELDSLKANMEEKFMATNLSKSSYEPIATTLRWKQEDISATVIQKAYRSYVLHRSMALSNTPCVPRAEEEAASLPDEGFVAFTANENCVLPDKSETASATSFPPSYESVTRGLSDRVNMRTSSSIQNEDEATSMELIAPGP
# Biological target: human NaV 1.8 (Homo sapiens, UniProt Q9Y5Y9)
# Test: Automated whole-cell patch clamp (Qube384) voltage-clamp recordings of sodium currents in HEK-NaV1.8 cell line
# Settings: read-out: Potency category (human NaV 1.8 IC50)
# Description: Electrophysiology: Voltage-Clamp Recordings
# The following NaV1.8 recombinant cell line was used for recordings: HEK-NaV1.8 (NM_006514.1) with b3 (NM_018400.3).
# Sodium currents were measured using the patch clamp technique in the whole-cell configuration using the Qube384 (Sophion A/S, Copenhagen, Denmark) automated voltage clamp platform. “Multi hole” plates were used for the cell line expressing NaV1.8 while “single hole” plates were used for the recombinant cell lines expressing the other subtypes. Appropriate filters (for minimum seal resistance and minimum current size) and series resistance compensation (for high quality sodium channel recordings) were applied. Data was collected at ambient room temperature or 19° C.
# The recording extracellular solution contained (in mM): NaCl 145 mM, KCl 4 mM, CaCl2 2 mM, MgCl2 1 mM, HEPES 10 mM, Glucose 10 mM, pH 7.4 (NaOH). […] Currents were recorded at 25 kHz sampling frequency and filtered at 5 kHz. […]
# Each parameter was recorded (P1, P2, P3, P40 from 10 Hz and P40 from 20 Hz) during a control period (lasting 5 minutes) when establishing the baseline and during compound period (lasting ~12 minutes) when test compound (or vehicle) was applied. […]
# The adjusted inhibition was calculated as follows: […]
# Percent inhibition was determined and IC50 values were calculated using a 4 parameter logistic model within XLFit Software (IDBS, Boston MA): F […]
smiles,measurement,value
CC1(Cn2nc(C3CC3)c(C(F)(F)F)c2C(=O)Nc2ccnc([S@](C)(=N)=O)c2)CCC(F)(F)C1 (stereo partly shown),IC50,< 100 nM
